From patent publication US11186589B2, “Cyanoindoline derivatives as NIK inhibitors” (Janssen Pharmaceutica NV, priority 2016, dated 2021)

Amino acid sequences for entries named in this document (tags omitted).
UniProt Q99558, whole entry: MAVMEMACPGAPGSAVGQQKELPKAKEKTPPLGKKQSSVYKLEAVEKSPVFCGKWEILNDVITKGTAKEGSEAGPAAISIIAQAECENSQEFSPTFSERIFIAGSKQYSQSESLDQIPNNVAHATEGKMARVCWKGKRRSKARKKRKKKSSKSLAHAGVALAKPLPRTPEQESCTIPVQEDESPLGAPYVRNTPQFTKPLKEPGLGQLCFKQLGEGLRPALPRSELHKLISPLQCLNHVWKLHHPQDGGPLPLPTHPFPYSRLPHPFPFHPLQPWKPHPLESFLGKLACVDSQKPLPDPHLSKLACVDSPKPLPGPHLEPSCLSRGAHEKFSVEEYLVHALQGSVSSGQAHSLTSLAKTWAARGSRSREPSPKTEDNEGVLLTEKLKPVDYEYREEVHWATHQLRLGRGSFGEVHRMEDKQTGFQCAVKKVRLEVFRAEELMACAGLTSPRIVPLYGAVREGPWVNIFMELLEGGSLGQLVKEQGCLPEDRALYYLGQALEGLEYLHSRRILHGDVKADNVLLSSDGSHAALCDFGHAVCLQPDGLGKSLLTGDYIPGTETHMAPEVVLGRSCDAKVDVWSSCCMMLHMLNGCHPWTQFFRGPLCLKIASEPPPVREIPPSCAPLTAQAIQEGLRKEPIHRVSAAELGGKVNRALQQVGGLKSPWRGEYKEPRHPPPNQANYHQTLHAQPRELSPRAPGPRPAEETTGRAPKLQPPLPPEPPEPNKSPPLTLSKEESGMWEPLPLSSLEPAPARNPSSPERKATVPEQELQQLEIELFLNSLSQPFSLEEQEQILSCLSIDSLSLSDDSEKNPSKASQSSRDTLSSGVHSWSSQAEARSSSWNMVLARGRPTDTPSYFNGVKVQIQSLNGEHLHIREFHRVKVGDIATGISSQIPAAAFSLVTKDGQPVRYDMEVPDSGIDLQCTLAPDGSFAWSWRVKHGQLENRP

What was measured:
[1] = tested on: P-IKKα levels in L363 cells; experiment: Effect of compounds on P-IKKα levels in L363 (NIK translocated multiple myeloma) cells; details: read-out: Inhibition of pIKKα_L-363 (IC50 (nM)), 2 hr treatment, averaged values
Procedure: Effect of Compounds on P-IKKα Levels in L363 (NIK Translocated Multiple Myeloma) Cells
All compounds tested were dissolved in DMSO and further dilutions were made in culture medium. Final DMSO concentration was 1% (v/v) in cell assays. The human L363 cells (ATCC) were cultured in RPMI 1640 medium supplemented with GlutaMax and 10% fetal calf serum (PAA). Cells were routinely maintained at densities of 0.2×10^6 cells per ml—1×10^6 cells per ml at 37° C. in a humidified 5% CO2 atmosphere. Cells were passaged twice a week splitting back to obtain the low density. Cells were seeded in 96 well plates (Nunc 167008) at 2×10^6 per ml media in a volume of 75 μl per well plus 25 μl 1 μg/ml recombinant human B-cell activating factor (BAFF/BLyS/TNFSF13B). Seeded cells were incubated at 37° C. in a humidified 5% CO2 atmosphere for 24 hr. Drugs and/or solvents were added (20 μl) to a final volume of 120 μl. Following 2 hr treatment plates were removed from the incubator and cell lysis was achieved by the addition of 30 μl 5× lysis buffer followed by shaking on a plate shaker at 4° C. for 10 min. At the end of this incubation lysed cells were centrifuged at 800×g for 20 min at 4° C. and the lysate was assessed for P-IKKα levels by sandwich immuno-assay carried out in anti-rabbit antibody coated Mesoscale plates. Within an experiment, the results for each treatment were the mean of 2 replicate wells. […]

[2] = tested on: JJN-3 cells; experiment: Antiproliferative activity on JJN-3 (NIK translocated) multiple myeloma cells (CellTiter-Glo); details: read-out: JJN-3 Proliferation inhibition (IC50 (nM)), JJN-3 (NIK translocated) cells, 96 hr treatment, averaged values
Procedure: (§1) Determination of Antiproliferative Activity on JJN-3 (NIK Translocated) and KMS12-BM (NIK WT) Multiple Myeloma Cells
(§2) All compounds tested were dissolved in DMSO and further dilutions were made in culture medium. Final DMSO concentration was 0.3% (v/v) in cell proliferation assays. Viability was assessed using CellTiter-Glo cell viability assay kit (Promega). The human JJN-3 and KMS12-BM cells (DSMZ) were cultured in RPMI 1640 medium supplemented with 2 mM L-glutamine, and 10% fetal calf serum (PAA). Cells were routinely kept as suspension cells at 37° C. in a humidified 5% CO2 atmosphere. Cells were passaged at a seeding density of 0.2×10^6/ml twice a week. Cells were seeded in black tissue culture treated 96-well plates (Perkin Elmer). Densities used for plating ranged from 15000 (JJN3) to 20000 (KMS12BM) cells per well in a total volume of […]. Drugs and/or solvents were added (15 μl) to a final volume of 150 μl. […] Luminescence was measured on a HTS Topcount (Perkin Elmer). […] For each experiment, controls (containing no drug) and a blank incubation (containing cells read at the time of compound addition) were run in parallel. […] For each sample, the mean value for cell growth (in relative light units) was expressed as a percentage of the mean value for cell growth of the control.

[3] = tested on: KMS12-BM cells; experiment: Antiproliferative activity on KMS12-BM (NIK WT) multiple myeloma cells (CellTiter-Glo); details: read-out: KMS-12 Proliferation inhibition (IC50 (nM)), 96 hr treatment, averaged values
Procedure: as §1, §2

[4] = biological target: NIK/MAP3K14 (Homo sapiens (Human), UniProt Q99558); experiment: Inhibition of auto-phosphorylation of recombinant human NF-kappaB-inducing kinase (NIK/MAP3K14) activity (AlphaScreen); details: read-out: Auto-phosphorylation inhibition of NIK (IC50 (nM)), averaged values over all measurements on all batches, 25 microM ATP
Procedure: Inhibition of Auto-Phosphorylation of Recombinant Human NF-kappaB-Inducing Kinase ([…]) Activity (AlphaScreen®)
NIK/MAP3K14 auto-phosphorylation activity was measured using the AlphaScreen® (αscreen) format (Perkin Elmer). All compounds tested were dissolved in dimethyl sulfoxide (DMSO) and further dilutions were made in assay buffer. Final DMSO concentration was […] in assays. Assay buffer was 50 mM Tris pH 7.5 containing 1 mM EGTA (ethylene glycol tetraacetic acid), 1 mM DTT (dithiothreitol), 0.1 mM Na3VO4, 5 mM MgCl2, 0.01% Tween® 20. Assays were carried out in 384 well Alphaplates (Perkin Elmer). Incubations consisted of compound, 25 microM Adenosine-5′-triphosphate (ATP), and 0.2 nM NIK/MAP3K14. Incubations were initiated by addition of GST-tagged NIK/MAP3K14 enzyme, carried out for 1 h at 25° C. and terminated by addition of stop buffer containing anti-phospho-[…] Ser176/180 antibody. Protein A Acceptor and Glutathione-Donor beads were added before reading using an EnVision® Multilabel Plate Reader (Perkin Elmer). Signal obtained in the wells containing blank samples was subtracted from all other wells and IC50's were determined by fitting a sigmoidal curve to % inhibition of control versus Log10 compound concentration.

In the case of CNC(=O)Cn1ccc2c(Nc3nccc(-c4cc(C#N)c5c(c4)C(C)(CO)CN5)n3)cc(Cl)cc21 (stereo not shown), the IC50 [1] is reported as 4 nM, the IC50 [2] is reported as 12 nM and the IC50 [3] is reported as 204 nM. The IC50 [4] was 4.3 nM.
